In all, about 350,000 compounds went through this assay and about 450 (0.13%) were called active.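 How the source made its calls: active means replicate mean at a twofold rise or more (about +100% in these data); inactive means the rest.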 Shown is part of a subset that was picked to be rich in actives.
Experiment: modulators of yeast start codon fidelity, primary screen, whole organism, S. cerevisiae, single point, plate reader (AID 602363)
Conditions: S. cerevisiae UUG-firefly luciferase reporter, luminescence/redox ratio; at 18.7 µM; active compounds read high

Activity score, inactive:
COc1cccc(S(=O)(=O)N[C@@H]2CC[C@@H](CCNC(=O)Cc3ccncc3)O[C@H]2CO)c1 0.154%
C[C@@H]1CN([C@@H](C)CO)C(=O)c2cc(-c3cccnc3)cnc2O[C@@H]1CN(C)C(=O)C1CC1 -5.34%
O=C(C[C@@H]1C[C@@H]2c3cc(NC(=O)Nc4ccc(C(F)(F)F)cc4)ccc3O[C@@H]2[C@@H](CO)O1)NCCc1ccccc1 -18.2%
C[C@@H]1CCCCO[C@H](CN(C)S(=O)(=O)c2cccs2)[C@@H](C)CN([C@@H](C)CO)C(=O)c2cc(NC(=O)NC3CCCCC3)ccc2O1 -8.53%
CO[C@@H]1CN(C)C(=O)c2cc(NC(=O)C3CC3)ccc2OC[C@@H](C)N(C(=O)c2ccncc2)C[C@H]1C 0.045%
CN(C)C(=O)c1ccc(-c2ccc([C@@H]3[C@@H](CO)N4CCCCN(Cc5cncnc5)C[C@@H]34)cc2)cc1 -3.82%
O=C(c1cccnc1)N1C[C@H]2[C@@H](c3ccccc31)[C@H](CO)N2C(=O)C1CCCCC1 -1.65%
O=C(c1cccnc1)N1C[C@@H]2[C@H](c3ccccc31)[C@@H](CO)N2C(=O)Nc1ccc(F)cc1 52.2%
O=C(c1ccccc1F)N1C[C@@H]2[C@H](c3ccccc31)[C@H](CO)N2C(=O)C1CCCC1 6.27%
O=C(C1CCC1)N1C[C@@H]2[C@H](c3ccccc31)[C@H](CO)N2C(=O)c1ccccc1 53.9%
COc1ccccc1-c1cn(CC[C@H]2CC[C@H](NC(=O)C3CCOCC3)[C@@H](CO)O2)nn1 -2.48%
C[C@@H]1CN([C@H](C)CO)S(=O)(=O)c2ccc(-c3ccccc3)cc2O[C@@H]1CN(C)C(=O)C1CC1 1.27%
Cn1cnc(CCNC(=O)C[C@H]2CC[C@H]3[C@@H](COC[C@H](O)CN3C(=O)C3CCCC3)O2)c1 2.13%
C[C@@H]1CCCCO[C@@H](CN(C)C(=O)Nc2ccc(F)cc2)[C@H](C)CN([C@@H](C)CO)C(=O)c2cc(NS(=O)(=O)c3ccccc3)ccc2O1 -2.99%
CCCC(=O)Nc1ccc2c(c1)C(=O)N(C)[C@H]1CC[C@@H](CC(=O)NCc3ccccc3)O[C@@H]1CO2 6.07%
COc1cccc(S(=O)(=O)N2C[C@@H](O)COC[C@@H]3O[C@H](CC(=O)N4CCN(C)CC4)CC[C@H]32)c1 25.3%
O=C(C1CCC1)N1C[C@H]2[C@@H](c3ccccc31)[C@H](CO)N2C(=O)Nc1cccc(F)c1 4.33%
CN1c2ccc(C#Cc3cccnc3)cc2[C@H]2[C@H](CCN2S(=O)(=O)c2ccccc2)[C@@H]1CO -20.3%
C[C@H]1CN([C@@H](C)CO)C(=O)c2cc(NC(=O)Cn3cnnn3)ccc2O[C@@H]1CN(C)CC1CCCCC1 -6.95%
C[C@H]1CN([C@@H](C)CO)C(=O)c2cc(Br)cnc2O[C@@H]1CN(C)C(=O)c1ccccc1F 1.14%
C[C@@H]1CCCCO[C@H](CN(C)Cc2ccc3c(c2)OCO3)[C@H](C)CN([C@@H](C)CO)C(=O)c2cc(NS(=O)(=O)c3cn(C)cn3)ccc2O1 0.464%
C[C@H]1CCCCO[C@H](CN(C)CC2CCCCC2)[C@@H](C)CN([C@@H](C)CO)C(=O)c2cc(NS(=O)(=O)c3ccc(Cl)cc3)ccc2O1 19.2%
Cc1noc(C)c1S(=O)(=O)Nc1ccc2c(c1)C(=O)N([C@@H](C)CO)C[C@@H](C)[C@@H](CN(C)S(=O)(=O)c1ccccc1)O2 -1.76%
C[C@H]1CN([C@@H](C)CO)C(=O)c2cccc(NC(=O)C3CC3)c2O[C@@H]1CN(C)S(=O)(=O)c1ccc(F)cc1 -5.43%
CN(C)CC(=O)Nc1ccc2c(c1)[C@@H]1C[C@H](CC(=O)NCc3ccc(Cl)cc3)O[C@@H](CO)[C@@H]1O2 26.4%
COCC(=O)Nc1ccc2c(c1)C(=O)N(C)[C@@H]1CC[C@H](CC(=O)NCC3CCCCC3)O[C@H]1CO2 -1.78%
CNC(=O)C[C@@H]1CC[C@@H]2[C@@H](COc3ccc(NC(=O)Cc4cccs4)cc3C(=O)N2C)O1 3.32%
CC(C)C#Cc1ccc2c(c1)O[C@@H](CN(C)C(=O)C1CC1)[C@H](C)CN([C@H](C)CO)S2(=O)=O 1.46%
O=S(=O)(Cc1ccccc1)N1CCCCN2[C@H](CO)[C@@H](c3ccc(-c4cncnc4)cc3)[C@H]2C1 -10.2%
COc1ccc(NC(=O)N(C)C[C@@H]2OCCCC[C@H](C)Oc3ccc(NS(=O)(=O)c4cccs4)cc3C(=O)N([C@@H](C)CO)C[C@@H]2C)cc1 -14.6%
C[C@H]1CN([C@@H](C)CO)C(=O)c2cccc(NS(C)(=O)=O)c2O[C@@H]1CN(C)C(=O)Nc1ccc(F)cc1 -0.709%
COCC(=O)N(C)C[C@H]1Oc2ncc(-c3cccc(OC)c3)cc2C(=O)N([C@H](C)CO)C[C@H]1C 11.3%
CO[C@H]1CN(C)C(=O)c2ccc(NS(=O)(=O)c3cn(C)cn3)cc2OC[C@@H](C)N(C)C[C@@H]1C -8.25%
C[C@@H]1CN([C@H](C)CO)C(=O)Cc2cc(NC(=O)CCCN(C)C)ccc2O[C@H]1CN(C)S(=O)(=O)c1cccs1 4.48%
CCC(=O)N1[C@@H](CO)[C@@H]2c3ccccc3N(C(=O)c3cnccn3)C[C@@H]21 -8.18%
O=C(N[C@@H]1CC[C@@H](CCNS(=O)(=O)Cc2ccccc2)O[C@@H]1CO)c1ccccc1F -4.32%
CC(C)NC(=O)N[C@@H]1CC[C@@H](CCNS(=O)(=O)Cc2ccccc2)O[C@@H]1CO -4.26%
C[C@@H]1CCCCO[C@H](CN(C)C(=O)Cc2ccccc2)[C@@H](C)CN([C@@H](C)CO)C(=O)c2cc(NC(=O)c3ccccc3)ccc2O1 0.371%
COCCCNC(=O)[C@@]1(C)c2ccccc2C(=O)N(Cc2ccc(OC(F)(F)F)cc2)[C@H]1c1ccc(CO)cc1 2.89%
CC(C)N1C(=O)[C@@]2(Cc3ccccc31)c1ccccc1C(=O)N(C1CCCCC1)[C@H]2c1ccc(CO)cc1 69%
COc1ccccc1NC(=O)N(C)C[C@@H]1Oc2ncc(Br)cc2C(=O)N([C@@H](C)CO)C[C@@H]1C 19.9%
CCOC(=O)C(=CNc1cccc(C)n1)C(=O)OCC -12%
CCOC(=O)C(=Cc1ccccc1)C(=O)c1ccccc1 -13%
COc1ccc(-c2cnc3c(c2)C(=O)N([C@@H](C)CO)C[C@@H](C)[C@H](CN(C)C)O3)cc1 -4.93%
N#Cc1cccc(-c2ccc3c(c2)[C@H]2[C@H](CCN2S(=O)(=O)c2ccc(F)cc2)[C@@H](CO)N3)c1 -15.3%
C[C@H]1CN([C@@H](C)CO)C(=O)Cc2cc(NC(=O)Nc3ccccc3)ccc2O[C@H]1CN(C)S(=O)(=O)c1cn(C)cn1 2.53%
C[C@H](CO)N1C[C@H](C)[C@@H](CN(C)Cc2cccnc2)Oc2cc(C#CC3CC3)ccc2S1(=O)=O 8.44%
COc1cccc(C(=O)Nc2ccc3c(c2)OC[C@H](C)N(C(C)=O)C[C@@H](C)[C@@H](OC)CN(C)C3=O)c1 43.4%
C/C=C/c1ccc2c(c1)O[C@@H](CN(C)C(=O)Cc1ccccc1)[C@H](C)CN([C@@H](C)CO)S2(=O)=O 58.8%
CC(C)NC(=O)N(C)C[C@H]1Oc2ccc(NC(=O)CCC(F)(F)F)cc2CC(=O)N([C@@H](C)CO)C[C@@H]1C -4.49%
CCCC(=O)Nc1ccc2c(c1)C(=O)N(C)[C@H]1CC[C@@H](CC(=O)NCC(F)(F)F)O[C@@H]1CO2 -2.34%
CO[C@@H]1CN(C)C(=O)c2cc(NC(=O)C3CCCC3)ccc2OC[C@H](C)N(C)C[C@@H]1C 3.06%
Cc1noc(C)c1NC(=O)Nc1ccc2c(c1)CC(=O)N([C@@H](C)CO)C[C@@H](C)[C@@H](CN(C)C(=O)NC(C)C)O2 -0.961%
C[C@H](O)C#Cc1cnc2c(c1)C(=O)N([C@H](C)CO)C[C@H](C)[C@H](CN(C)C(=O)c1ccc(F)cc1)O2 9.52%
CC(C)NC(=O)N(C)C[C@@H]1Oc2c(cccc2N(C)C)C(=O)N([C@@H](C)CO)C[C@H]1C -11.2%
C[C@H]1CN([C@@H](C)CO)C(=O)c2cc(NS(=O)(=O)c3cccs3)ccc2O[C@@H]1CN(C)C(=O)Nc1ccccc1 -9.65%
C[C@@H]1CN([C@@H](C)CO)S(=O)(=O)c2ccc(C#CCN(C)C)cc2O[C@@H]1CN(C)CC1CC1 33.3%
C[C@@H]1CCCCO[C@@H](CN(C)Cc2ccc(C(=O)O)cc2)[C@H](C)CN([C@@H](C)CO)C(=O)c2cc(NC(=O)C3CCCCC3)ccc2O1 3.06%

Activity score, active:
O=C(C1CCC1)N1C[C@H]2[C@@H](c3ccccc31)[C@@H](CO)N2C(=O)c1ccccc1F 115%
O=C(c1cccnc1)N1C[C@H]2[C@@H](c3ccccc31)[C@H](CO)N2C(=O)C1CC1 101%
O=C(N[C@H]1CC[C@@H](CCNS(=O)(=O)Cc2ccccc2)O[C@H]1CO)c1ccccc1F 170%
COc1ccc(CCN2C(=O)[C@@]3(Cc4ccccc42)c2ccccc2C(=O)N(Cc2ccccc2C(F)(F)F)[C@H]3c2ccc(CO)cc2)cc1 153%
CCOC(=O)C(=Cc1ccccc1OC)C(=O)OCC 448%

Reference: PubChem BioAssay AID602363 (Broad Institute, 2012)
